# In PubChem BioAssay AID2587 (National Center for Advancing Translational Sciences (NCATS), 2010):
# Chains of the proteins cited; added tags and fusions are not shown. Lines headed by an entry give the natural chain unless they say otherwise; changes in a name come on top.
# UniProt P04062: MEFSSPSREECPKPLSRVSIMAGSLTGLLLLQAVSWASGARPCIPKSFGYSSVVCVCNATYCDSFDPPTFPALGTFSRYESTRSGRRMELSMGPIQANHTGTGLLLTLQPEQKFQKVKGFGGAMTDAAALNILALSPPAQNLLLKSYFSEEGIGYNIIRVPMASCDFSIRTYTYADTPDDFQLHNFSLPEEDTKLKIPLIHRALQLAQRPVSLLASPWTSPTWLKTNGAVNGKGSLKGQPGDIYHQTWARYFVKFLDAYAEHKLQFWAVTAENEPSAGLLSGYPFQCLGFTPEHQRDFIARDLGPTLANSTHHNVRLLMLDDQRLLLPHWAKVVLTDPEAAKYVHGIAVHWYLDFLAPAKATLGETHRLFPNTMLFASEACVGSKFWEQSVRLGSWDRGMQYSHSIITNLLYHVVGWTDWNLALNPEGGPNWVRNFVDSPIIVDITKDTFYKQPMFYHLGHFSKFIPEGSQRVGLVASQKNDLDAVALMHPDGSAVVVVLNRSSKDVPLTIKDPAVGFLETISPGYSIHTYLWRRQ
# Only a part is listed here, and it is no random draw. Calls of active or inactive are those of the source. Calls come from the whole dose curve; as a rule, active = well fitted curve in the direction sought with a large enough effect; inactive = no such curve, though single readings can be large or run the other way.
# Target: Lysosomal acid glucosylceramidase (Homo sapiens) (UniProt P04062)
# Assay: qHTS Assay for Inhibitors and Activators of N370S glucocerebrosidase as a Potential Chaperone Treatment of Gaucher Disease: Chaperone Activity in Gauche Fibroblasts After Multi-day Incubation with Compound
# Conditions: GC immunofluorescence, 5 days
# From the text: NIH Chemical Genomics Center [NCGC] NIH Molecular Libraries Probe Production Centers Network [MLPCN] MLPCN Grant: MH086442-01 Assay Submitter (PI): Wei Zheng Glucocerebrosidase (GC) catalyzes the hydrolysis of beta-glucocerebroside to glucose and ceramide in lysosomes. Mutations in the glucocerebrosidase gene result in Gaucher disease, an autosomal recessive lysosomal storage disorder. Many of the mutations encountered in patients with Gaucher disease are missense alterations that may cause misfolding, decreased stability and/or mistrafficking of this lysosomal protein. […] These inhibitors include iminosugar analogs and three non-iminosugar inhibitors identified from a previous HTS of 62,000 compounds with the wild type recombinant enzyme. However, the enhancement of enzyme activity by the chaperone action of an enzyme inhibitor must be balanced against the direct inhibition of the enzyme. An enzyme activator could also function as a chaperone by binding to the enzyme and helping to correct its misfolding and mistrafficking. […] This assay attempts to quantitate translocated glucocerebrosidase protein in patient-derived fibroblasts following extended compound incubation. […]
# NCGC Assay Protocol Summary: 1. […] Visualized using a fluorescence microscope and the intensity of fluorescence in the selected areas were calculated. […]
row,Structure (SMILES),Potency
1,Cc1cc(N2CCOCC2)nc2ccc(NC(=O)C3CCCCC3)cc12,active: 28.2 µM
